pIC50: −log10 of the molar value.

Protein sequences, listed by entry. Tags and fused reporters are not part of them.
UniProt P25101, whole entry: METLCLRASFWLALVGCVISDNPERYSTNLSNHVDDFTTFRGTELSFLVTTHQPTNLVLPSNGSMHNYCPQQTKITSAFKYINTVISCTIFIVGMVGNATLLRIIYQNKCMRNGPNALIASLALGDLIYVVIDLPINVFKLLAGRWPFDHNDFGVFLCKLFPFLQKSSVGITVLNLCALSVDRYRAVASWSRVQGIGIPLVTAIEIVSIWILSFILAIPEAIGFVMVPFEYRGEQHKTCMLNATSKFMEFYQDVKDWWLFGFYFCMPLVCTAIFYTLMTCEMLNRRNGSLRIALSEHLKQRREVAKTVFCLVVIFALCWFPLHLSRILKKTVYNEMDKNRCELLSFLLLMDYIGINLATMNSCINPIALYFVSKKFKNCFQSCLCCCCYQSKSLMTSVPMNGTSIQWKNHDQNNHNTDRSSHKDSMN

The term pIC50 denotes the IC50 on a negative log10 scale, so that one unit is a factor of ten. Read a high pIC50 as a small IC50.

The test has as its target Endothelin-1 receptor (Homo sapiens, UniProt P25101). The experiment in a line: Inhibition of specific binding of [125-I]ET-1 to human endothelin A receptor.

With `CN(C)c1cccc2c(S(=O)(=O)Nc3ncccn3)cccc12`, the pIC50 is 5.20.

Values taken from ChEMBL document CHEMBL1129980, “New non-peptide endothelin-A receptor antagonists: synthesis, biological properties, and structure-activity relationships of 5-(dimethylamino)-N-pyridyl-,-N-pyrimidinyl-,-N-pyridazinyl-, and -N-pyrazinyl-1-naphthalenesulfonamides” (J Med Chem, 1997).
